Measurements published in patent US8183252B2, “Heterocyclic aspartyl protease inhibitors” (Schering Corporation, priority 2007, dated 2012).
Where two headings read alike, the source gives them in different places.

The chains behind the UniProt entries cited, without tags or fusion partners. Residues count along the entry.
UniProt P56817, 22-454: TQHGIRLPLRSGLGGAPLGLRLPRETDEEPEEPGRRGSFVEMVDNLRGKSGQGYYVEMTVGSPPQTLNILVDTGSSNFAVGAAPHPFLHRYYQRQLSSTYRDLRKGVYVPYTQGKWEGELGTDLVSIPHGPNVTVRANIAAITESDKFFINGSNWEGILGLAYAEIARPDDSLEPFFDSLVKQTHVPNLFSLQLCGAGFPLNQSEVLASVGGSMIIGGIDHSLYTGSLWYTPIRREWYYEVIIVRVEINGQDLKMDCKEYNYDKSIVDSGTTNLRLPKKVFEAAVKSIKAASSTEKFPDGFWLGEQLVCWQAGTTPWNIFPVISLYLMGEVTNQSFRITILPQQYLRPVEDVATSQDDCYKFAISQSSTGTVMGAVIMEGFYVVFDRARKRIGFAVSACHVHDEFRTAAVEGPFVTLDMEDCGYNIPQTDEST

Target: T1, human BACE1 (sproBACE1) (Homo sapiens, UniProt P56817)
T1 construct: sBACE1, corresponding to amino acids 1-454; made in house; host or cells: Sf9 insect cells (baculovirus), secreted into the medium
Assay: BACE-1 Peptide Hydrolysis Assay (HTRF)
Format: biochemical
Text: A HindIII/PmeI fragment from pCDNA4-sBACE1myc/His was blunt ended using Klenow and subcloned into the Stu I site of PFASTBACI(A) (Invitrogen). A sBACE1mycHis recombinant bacmid was generated by transposition in DH10Bac cells (GIBCO/BRL). Subsequently, the sBACE1mycHis bacmid construct was transfected into sf9 cells using CellFectin (Invitrogen, San Diego, Calif.) in order to generate recombinant baculovirus. […] Five milliliters of high titer plaque purified sBACEmyc/His virus was used to infect 1 L of logarithmically growing sf9 cells for 72 hours. Intact cells were pelleted by centrifugation at 3000×g for 15 minutes. The supernatant, containing secreted sBACE1, was collected and diluted 50% v/v with 100 mM HEPES, pH 8.0. The diluted medium was loaded onto a Q-sepharose column. The Q-sepharose column was washed with Buffer A (20 mM HEPES, pH 8.0, 50 mM NaCl).
Proteins, were eluted from the Q-sepharose column with Buffer B (20 mM HEPES, pH 8.0, 500 mM NaCl). The protein peaks from the Q-sepharose column were pooled and loaded onto a Ni-NTA agarose column. The Ni-NTA column was then washed with Buffer C (20 mM HEPES, pH 8.0, 500 mM NaCl). Bound proteins were then eluted with Buffer D (Buffer C+250 mM imidazole).
Reactions were initiated by addition of substrate in a 5 μl aliquot resulting in a total volume of 25 μl. After 3 hr at 30° C. reactions were terminated by addition of an equal volume of 2× stop buffer containing 50 mM Tris-HCl pH 8.0, 0.5 M KF, 0.001% Brij-35, 20 μg/ml SA-XL665 (cross-linked allophycocyanin protein coupled to streptavidin; CIS-Bio International, France) (0.5 μg/well). Plates were shaken briefly and spun at 1200×g for 10 seconds to pellet all liquid to the bottom of the plate before the incubation.
Y=Bottom+(Top-Bottom)/(1+10^((LogEC50−X)*Hill Slope)); X is the logarithm of concentration of I, Y is the percent change in ratio and Y starts at bottom and goes to top with a sigmoid shape.

SMILES	Ki	Ki (read-out: BACE-1 Ki)
CN1C(=N)NC(c2cccc(-c3cccc(Cl)c3)c2)(C2(C)CC2)C1=O (stereo not shown)	< 5 µM	
CN1C(=N)NC(c2ccccc2)(c2cccc(-c3ccccn3)c2)C1=O (racemic) [2-IMINO-3-METHYL-5-PHENYL-5-[3-(2-PYRIDINYL)PHENYL]-4-IMIDAZOLIDINONE (RACEMIC)]	< 5 µM	
CN1C(=N)NC(c2cccc(-c3cccc(Cl)c3)c2)(c2ncccn2)C1=O (stereo not shown)		< 5 µM
CN1C(=N)NC(c2cccc(-c3cccc(Cl)c3)c2)(c2nccs2)C1=O (stereo not shown)		< 5 µM
CN1C(=N)NC(CC2CC2)(c2cccc(-c3cccc(Cl)c3)c2)C1=O (stereo not shown)		< 5 µM

Now from value to compound:

Ki	Ki (read-out: BACE-1 Ki)	SMILES
< 5 µM		CN1C(=N)N[C@@](c2cccc(-c3cncc(Cl)c3)c2)(C2CC2)C1=O
	< 5 µM	CN1C(=N)NC(c2cccc(-c3cccc(Cl)c3)c2)(C2CCCCC2)C1=O (stereo not shown)
